# Measured values taken from publication PMC10295947 (Biomolecules, 2023).
# Protein sequences, listed by entry. Tags and fused reporters are not part of them.
# UniProt P42866, whole entry: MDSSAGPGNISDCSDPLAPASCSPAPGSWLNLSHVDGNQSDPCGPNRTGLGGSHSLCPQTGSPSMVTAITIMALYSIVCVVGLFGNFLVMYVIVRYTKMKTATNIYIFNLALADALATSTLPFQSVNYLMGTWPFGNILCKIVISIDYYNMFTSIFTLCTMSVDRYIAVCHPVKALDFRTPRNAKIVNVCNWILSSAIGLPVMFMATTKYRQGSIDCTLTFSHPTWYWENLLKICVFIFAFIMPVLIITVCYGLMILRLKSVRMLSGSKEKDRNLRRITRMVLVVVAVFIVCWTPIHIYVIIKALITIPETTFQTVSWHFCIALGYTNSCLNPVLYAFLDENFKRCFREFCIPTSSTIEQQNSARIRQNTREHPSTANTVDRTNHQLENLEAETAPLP
# Key:
# MOR [1] = molecular target: T1, MOR (Mus musculus, UniProt P42866); experiment: biochemical; assay type: biochemical
# MOR [2] = molecular target: T1, MOR; experiment: biochemical
SMILES,EC50 (MOR [1]),pIC50 (MOR [2]),Emax (MOR [1]) [%]
"COc1ccsc1CNCC[C@@]1(c2ccccn2)CCOC2(CCCC2)C1 [oliceridine, Oliceridine hydrochloride]",not converged,6.69,–
"CN1CC[C@]23c4c5ccc(O)c4O[C@H]2[C@@H](O)C=C[C@H]3[C@H]1C5 [morphine, Morphine sulfate pentahydrate]",–,–,~50

# pIC50: −log10 of the molar value. Counter-ions that a name gives are not always drawn.
